Experimental data taken from PubChem BioAssay AID1665 (Sanford-Burnham Center for Chemical Genomics, 2009).
Where “and” joins values, the source holds several entries; their conditions need not be identical. Equal entries are not always repeated. The list shows a part of the results, in another mix than the full data. Some salts or complexes appear as unconnected parts, following the source record. Calls of active or inactive are those of the source.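 Rule for the calls: active = nuclear translocation activity above 50% at 5 µM, with a well cell count of 50 or more; inconclusive = wells under 50 cells across six images, flagged as toxic; inactive = the rest.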

experiment: modulators of beta-catenin nuclear translocation, primary screen, imaging, HeLa cells, immunofluorescence, high-content (AID 1665); details: at 5 µM, active compounds read high;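 note: per-cell ratio of nuclear to cytoplasmic median beta-catenin stain intensity; plate controls were DMSO negative control for no effect and GSK-3 inhibitor IX positive control for full effect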

SMILES	nuclear translocation activity
COc1ccccc1OP(C)(=O)Nc1ccc(C)c(C)c1 (stereo unspecified)	inactive: -1.4%
CCOP(=O)(Nc1ccccc1)OCC	inactive: -4.2% and inactive: -2.6%
Cc1cc(SC(NC(=O)c2ccc(F)cc2)C(Cl)(Cl)Cl)ncn1 (stereo unspecified)	inactive: -2.7%
Cc1cc(C)cc(OP(C)(=O)Nc2cccc(C(F)(F)F)c2)c1 (stereo unspecified)	inactive: 1.8%
O=P(Nc1nc2ccc(Cl)cc2s1)(c1ccccc1)c1ccccc1	inactive: -0.5%
O=C(O)c1ccccc1[As](=O)(O)O	inactive: -0.3%
CC(=O)Nc1ccc([As](=O)(O)O)cc1	inactive: -4%
CN(C)C(=O)Oc1noc2ccccc12	inactive: -0.3%
O=c1c2cc([N+](=O)[O-])ccc2[nH]c2c([N+](=O)[O-])cc([N+](=O)[O-])cc12	inactive: 1.3%
CCCCCOc1ccc(NP(C)(=O)Oc2ccc(Cl)cc2Cl)cc1 (stereo unspecified)	inactive: 0.8%
Cc1ccccc1OP(=O)(Nc1ccccn1)Oc1ccccc1C	inactive: -1.1%
CP(=O)(Nc1ccccc1)Oc1ccc(F)cc1 (stereo unspecified)	inactive: -2.5%
CCN(CC)CCCOC(=O)C(O)(c1ccccc1)C1CCCCC1 (stereo unspecified)	inactive: 1.2%
Cc1ccc(OP(=O)(Nc2ccccn2)Oc2ccc(C)cc2)cc1	inactive: -1.2%
CC(=O)NC(SC(=S)N(CC(C)C)CC(C)C)C(Cl)(Cl)Cl (stereo unspecified)	inactive: 1.8%
COC(=O)c1cc2c(s1)N=C(c1ccccc1)N(C)P2(=O)N1CCOCC1 (stereo unspecified)	inactive: -1%
COc1ccc(OP(C)(=O)Nc2ccc(SC(F)(F)F)cc2)cc1 (stereo unspecified)	inactive: -3.3%
CCOC(=O)c1ccc(NP(C)(=O)Oc2ccc(F)cc2)cc1 (stereo unspecified)	inactive: -1.8%
CCOC(=O)NC(Sc1ccccc1)C(Cl)(Cl)Cl (stereo unspecified)	inactive: -1.6%
Cc1ccc(NP(=O)(Oc2cccc(C)c2)Oc2cccc(C)c2)nc1	inactive: -0.6%
c1ccc(-c2nn[nH]n2)c(-c2nn[nH]n2)c1	inactive: -0.4%
O=C(NC1CCS(=O)(=O)C1)NP(=S)(Oc1ccccc1)Oc1ccccc1 (stereo unspecified)	inactive: -0.5%
CCNC(=S)/N=C(\N)N[N+](=O)[O-]	inactive: 0.7%
CC(=O)Nc1ccc(Oc2c([N+](=O)[O-])cc([N+](=O)[O-])cc2[N+](=O)[O-])cc1	inactive: -0.4%
COc1ccc2c(c1O)-c1c(O)c(OC)cc3c1[C@H](C2)[N+](C)(C)CC3.O=[N+]([O-])c1cc([N+](=O)[O-])c([O-])c([N+](=O)[O-])c1[O-]	inactive: -1.4%
CC(=O)Nc1ccc([As](=O)(O)O)c(O)c1	inactive: -0.2%

SMILES	nuclear translocation activity
C[C@@H]1C=CCP(=O)(Oc2ccccc2)O1 (stereo partly specified)	inactive: -1.6%
C[C@H]1OP(=O)(Oc2ccccc2)C[C@@H]2O[C@@H]21 (stereo partly specified)	inactive: -0.2%
O=C(OCCN1CCN(CCOCc2ccccc2)CC1)C(O)(c1ccccc1)c1ccccc1	inactive: -0.4%
O=C(OC1CN2CCC1CC2)c1ccc([N+](=O)[O-])cc1 (stereo unspecified)	inactive: 2.9%
CC(C)c1ccc(OP(C)(=O)Nc2ccc(SC(F)(F)F)cc2)cc1 (stereo unspecified)	inactive: -1.2%
CC(C)(C)C(=O)NC(Sc1ccccc1)C(Cl)(Cl)Cl (stereo unspecified)	inactive: 0.1%
CP(=O)(Nc1ccccc1F)Oc1ccccc1 (stereo unspecified)	inactive: -3.3%
CCOc1ccc(C2=NCC(CBr)S2)cc1 (stereo unspecified)	inactive: 0.4%
O=P1(Nc2nc3ccc(Cl)cc3s2)COc2ccccc2O1 (stereo unspecified)	inactive: -7.8%
Cc1ccccc1NP(C)(=O)Nc1ccccc1C	inactive: 2.2%
CP(=O)(Nc1ccc2c(c1)OCCO2)Oc1ccccc1 (stereo unspecified)	inactive: -2.9%
c1nnnn1CCn1cnnn1	inactive: 2.3%
CCOP(C)(=S)SCC(=O)NC(C)(CC)C(=O)O (stereo unspecified)	inactive: -2.5%
O=P(Nc1nccs1)(c1ccccc1)c1ccccc1	inactive: -0.6%
CC(C)C(=O)NC(Sc1ccccc1)C(Cl)(Cl)Cl (stereo unspecified)	inactive: 2.4%
CP(=O)(Nc1ccc(SC(F)(F)F)cc1)Oc1ccc(F)cc1 (stereo unspecified)	inactive: 0.6%
O=C(OC1CN2CCC1CC2)c1cccc(Cl)c1 (stereo unspecified)	inactive: 1.2%
Nc1ccc([As](=O)(O)c2ccc([N+](=O)[O-])cc2)cc1	inactive: -1.4%
C(Cc1nn[nH]n1)Cc1nn[nH]n1	inactive: -2.5%
O=[N+]([O-])c1cc([N+](=O)[O-])c(NCC2CCS(=O)(=O)C2)c([N+](=O)[O-])c1 (stereo unspecified)	inactive: 4.1%
Cc1cc(-c2cccc3ccccc23)c(C)cn1.O=[N+]([O-])c1cc([N+](=O)[O-])c(O)c([N+](=O)[O-])c1	inactive: 3.7%
O=[As](O)(c1ccccc1)c1ccc(O)cc1	inactive: -1.3%
O=[N+]([O-])c1ncn(CCn2cnc([N+](=O)[O-])n2)n1	inactive: -0.3%
CC(=O)NC(SC(=S)N(C)C)C(Cl)(Cl)Cl (stereo unspecified)	inactive: -0.2%
O=[N+]([O-])c1ccc(OP2(=O)COCCO2)cc1 (stereo unspecified)	inactive: 0.2%
